Experimental findings from patent US11052157B2 (priority 2014, dated 2021) are described below.

The nature of the data set: Solubility in water.

As to 2′-B-alanyl taxol formate [TF.Pac], the solubility result is listed as “at least 2 mg/ml”.
